{
  "sequences": {"note": "By UniProt entry, the sequences of proteins in these tests, tags left out.", "UniProt P08183, whole entry": "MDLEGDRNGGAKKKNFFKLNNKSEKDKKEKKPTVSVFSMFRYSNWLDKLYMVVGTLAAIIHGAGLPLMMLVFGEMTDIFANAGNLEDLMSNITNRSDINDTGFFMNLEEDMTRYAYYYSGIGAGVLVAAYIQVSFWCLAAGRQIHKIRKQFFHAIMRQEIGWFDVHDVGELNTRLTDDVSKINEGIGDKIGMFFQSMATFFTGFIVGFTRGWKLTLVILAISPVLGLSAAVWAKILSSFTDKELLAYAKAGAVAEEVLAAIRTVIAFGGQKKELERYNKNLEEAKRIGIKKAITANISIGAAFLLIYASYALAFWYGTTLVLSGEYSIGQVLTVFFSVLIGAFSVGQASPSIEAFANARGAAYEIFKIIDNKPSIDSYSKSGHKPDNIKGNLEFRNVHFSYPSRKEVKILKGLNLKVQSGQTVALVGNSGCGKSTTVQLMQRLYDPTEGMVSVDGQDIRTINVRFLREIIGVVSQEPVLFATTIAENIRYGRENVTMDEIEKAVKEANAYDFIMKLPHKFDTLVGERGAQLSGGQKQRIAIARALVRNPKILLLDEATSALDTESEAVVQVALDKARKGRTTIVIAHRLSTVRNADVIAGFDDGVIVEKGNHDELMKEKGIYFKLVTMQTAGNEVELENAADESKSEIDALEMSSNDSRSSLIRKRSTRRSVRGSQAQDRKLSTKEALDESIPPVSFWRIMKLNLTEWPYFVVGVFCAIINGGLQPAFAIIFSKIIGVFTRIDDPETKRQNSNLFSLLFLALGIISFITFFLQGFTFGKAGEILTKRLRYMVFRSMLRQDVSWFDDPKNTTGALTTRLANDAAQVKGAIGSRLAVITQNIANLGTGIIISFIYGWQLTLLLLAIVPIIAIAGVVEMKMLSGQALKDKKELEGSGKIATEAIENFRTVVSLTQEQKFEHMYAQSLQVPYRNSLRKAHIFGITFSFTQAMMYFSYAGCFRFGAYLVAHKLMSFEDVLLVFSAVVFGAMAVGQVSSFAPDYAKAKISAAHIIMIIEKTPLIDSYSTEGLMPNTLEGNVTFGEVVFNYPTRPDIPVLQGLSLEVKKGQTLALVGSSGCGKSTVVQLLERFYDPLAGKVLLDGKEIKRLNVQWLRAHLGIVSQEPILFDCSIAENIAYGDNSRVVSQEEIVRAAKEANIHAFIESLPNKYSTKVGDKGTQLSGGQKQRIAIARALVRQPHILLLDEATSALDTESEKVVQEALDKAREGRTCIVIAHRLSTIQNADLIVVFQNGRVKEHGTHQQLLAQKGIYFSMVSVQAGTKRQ"},
  "source": "paper PMC7408396",
  "about": "“IPEC-J2 rMdr1a, a New Cell Line with Functional Expression of Rat P-glycoprotein Encoded by Rat Mdr1a for Drug Screening Purposes” (Pharmaceutics, 2020)",
  "key": {"human P-gp [1]": {"target": "T1, human P-gp (Homo sapiens, UniProt P08183)", "assay": "Bidirectional transport across IPEC-J2 MDR1 cell monolayers", "format": "in vitro ADME", "parameters": "expressed in transfected cells; host or cells: IPEC-J2 (porcine intestinal epithelial cells), previously established IPEC-J2 MDR1 line", "settings": "Figure 5 comparison series", "protocol": "The cell monolayers were washed and pre-incubated in transport buffer consisting of 10 mM HEPES, 0.05% BSA and 0.038% sodium bicarbonate in HBSS pH 7.4 for 15 min at 37 °C on a shaking table (Unimax 2010, Heidolph, Schwabach, Germany) with a rotation of 75–90 rpm. The buffer was removed, and the transport experiments were initiated by the addition of donor solution containing radio-labelled compound in transport buffer in a concentration of 0.5 or 1 μ Ci/mL to either the apical or the basolateral chamber. […] Receiver samples were collected after 15, 30, 45, 60, 90 and 120 min from the basolateral (100 µL) or the apical chamber (50 µL), respectively.\nBased on data from transport experiments, the apparent permeability coefficients (Papp) were calculated using Equation (1):(1) Papp = J/C0 = Qt/C0At where J denotes the steady-state flux (nmol·cm^−2·min^−1), C0 is the initial concentration in the donor compartment, A is the cross-sectional area of the permeable inserts (1.13 cm^2) and Qt represents the accumulated amount of drug in the receiver compartment at time t in minutes (corrected for the dilution arising from replacement of the sampled volume with blank transport buffer)."}, "human P-gp [2]": {"target": "T1, human P-gp", "parameters": "expressed in transfected cells; host or cells: IPEC-J2 (porcine intestinal epithelial cells), previously established IPEC-J2 MDR1 line; method as in PMID 27194478", "settings": "MDCK II MDR1 cell monolayers; cited from earlier work"}},
  "note": "Where “and” joins values, the source holds several entries; their conditions need not be identical. Equal entries are not always repeated.",
  "data": [
    {"smiles": "Cc1cc2c(s1)Nc1ccccc1N=C2N1CCN(C)CC1", "note": "[olanzapine]", "values": [
      {"measurement": "efflux ratio", "setting": "human P-gp [1]", "result": 1.8},
      {"measurement": "efflux ratio (ER)", "setting": "human P-gp [2]", "result": "> 3 and 4.9"}
    ]}
  ]
}
